Earlier results on 1 compound are cited in patent US5739158A, “Nitrogen-containing cyclohetero cycloalkylaminoaryl derivatives for CNS disorders” (The United States of America as represented by the …, priority 1992, dated 1998).

SMILES strings stand for the structures.

The test system of this data set is kappa opioid receptors. The note with it: B. R. de Costa et al, 1989; cited from earlier work.

`CN(C(=O)Cc1ccc(Cl)c(Cl)c1)[C@@H]1CCCC[C@H]1N1CCCC1` (relative stereo): the “Selectivity for kappa opioid receptors (in words)” value was “highly selective ligand for kappa opioid receptors”.
